Values quoted from earlier work as cited in paper PMC4742250.
“And” between values parts separate entries of the source, which are not always exact repeats. Identical values can stand only once.

Biological target: Thioredoxin (Escherichia coli) [thioredoxin: P0AA25]

Question: For “T7 DNA polymerase gp5 (from UniProt P00581)”, which Kd is on record?
Answer: 5 nM and 4 nM
